{
  "source": "patent US10821110B2",
  "about": "“Composite preparation, containing novel 3-(4--(benzyloxy)phenyl)hex-4-inoic acid derivative and another active ingredient, for preventing or treating metabolic diseases” (HYUNDAI PHARM CO., LTD., priority 2014, dated 2020)",
  "system": "male diet-induced obesity (DIO) mice",
  "test": "OGTT by co-administration with DPPIV inhibitor (sitagliptin), mouse model",
  "assay_type": "in vivo",
  "settings": "oral, sitagliptin 10 mg/kg alone",
  "data": [
    {"compound": "N[C@@H](CC(=O)N1CCn2c(nnc2C(F)(F)F)C1)Cc1cc(F)c(F)cc1F", "note": "[Sitagliptin, sitagliptin, reference compound]", "values": [
      {"measurement": "Reduction (%) of blood glucose AUC", "value": 17.7, "unit": "%"}
    ]}
  ]
}
